The text below walks through data of ChEMBL document CHEMBL3137440, “DNDi T. cruzi fenarimol series dataset from which preclinical candidate EPL-BS0967 was identified (see also related datasets: CHEMBL3137386 and CHEMBL2448688)”.

This assay relates to Trypanosoma cruzi. The assay can be described thus: DNDI: Chagas in Vitro. The following applies: Tulahuen C4 (LacZ). In kind it is functional, organism-based.

In general, IC50 refers to the concentration at which inhibition is half-maximal. Read a low IC50 as inhibition by little substance. For the compound `FC(F)(F)c1ccc(N(c2cccnc2)C2CCN(c3ccc(C(F)(F)F)nc3)CC2)cc1`, the IC50 was found to be 15 nM.
